# Binding of CDR-mutated scFvs to a peptide of the spike HR2 region

The measurements come from Li et al. 2023 (doi:10.1038/s41467-023-39022-2) through the FLAb antibody collection.

Target peptide (SARS-CoV-2 spike, HR2 region): PDVDLGDISGINAS

Each scFv is VH, the linker GGGGSGGGGSGGGGS, VL, as in the parent Ab-14, and differs from it in the CDRs of the heavy chain only.
VH: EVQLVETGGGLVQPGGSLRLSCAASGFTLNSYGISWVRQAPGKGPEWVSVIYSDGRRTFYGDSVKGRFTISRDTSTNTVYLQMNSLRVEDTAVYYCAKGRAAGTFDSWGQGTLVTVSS
VL: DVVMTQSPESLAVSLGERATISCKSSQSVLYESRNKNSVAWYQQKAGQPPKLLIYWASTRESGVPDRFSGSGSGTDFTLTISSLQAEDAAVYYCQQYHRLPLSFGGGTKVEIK

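The parent was found by panning a naive human phage display library on the peptide. The variants were designed computationally from a first round of random CDR variants and then made and measured. Several design methods are mixed in this list. AlphaSeq pools MATa yeast showing the antibodies with MATalpha yeast showing the peptide. After mating in shaken culture at 30 °C for 16 h, diploids were selected and their barcode pairs sequenced. Each replicate has its own calibration line, from reference interactions of the BCL2 family. There are six technical replicates.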

The parent's heavy chain CDRs are GFTLNSYGIS, VIYSDGRRTFYGDSVK, GRAAGTFDS; each variant's own CDRs replace them letter for letter.
Scale: log10 of Kd in nM, estimated from mating counts; low values are strong binders.
The mean shown is taken over the replicates in which the pair was detected.
A pair that was not seen in that replicate is written "nd"; this usually means weak binding, but a binder can also be missed.
In the paper, a design with two or fewer of six values counts as a poor binder.

| CDR-H1 | CDR-H2 | CDR-H3 | log10 Kd (nM) by replicate | mean, log10 nM |
|---|---|---|---|---|
| GFDINEYGIS | VIYADGRRTFYADSVK | GNQAGTFDL | 0.04 -0.14 -0.39 -0.25 0.14 0.19 | -0.07 |
| GFDLNEYGIS | VIYADGKRTQYIDSVK | GEVAGTFDA | -0.39 -0.06 -0.67 -0.03 0.09 0.32 | -0.12 |
| GFTLNSYGIS | VIYSDGRRTFYADSVK | GQLAGTFDD | 0.15 0.35 0.61 0.61 0.36 0.48 | 0.42 |
| GRTLSEYGIS | VIYSDGRRTFYGDSVK | ARAALTFDS | nd nd nd nd nd nd | nd |
| MFSLNSYGIS | VIYSDGRRTFYGDSVK | GEAAGTFDS | nd nd nd nd nd nd | nd |
| GFTLESYGIH | VIYSDGRRTFYHDSVA | GRAAGTFDS | nd 1.34 2.38 nd nd 2.44 | 2.05 |
| GFDLNEYGIS | VIYADGRRTFYADSVK | GHVAGTFVT | -0.64 -0.59 -0.73 -1.06 -0.76 -0.69 | -0.75 |
| GQDLAEYGIS | VIYADGKRTMYANDVK | GHNDGQGVT | nd nd nd nd nd nd | nd |
| GFTLNSYGIS | VIYADGRRTFYGDSVK | RQAAGTFDS | nd nd nd nd nd nd | nd |
| GFTLNSYGIS | VIYADGRRTFYGDSVK | GREAGTFDK | 0.13 -0.36 -0.31 -0.28 -0.15 -0.21 | -0.20 |
| GFTLEEMGIS | VIYSDGRRTFYTDSVK | GRFAGTFDS | 1.40 2.05 nd 0.71 0.92 1.62 | 1.34 |
| GFTLDSYGIS | VIYADGRRTFYGDSVK | GRAAGTFAS | nd nd nd 1.06 nd nd | 1.06 |
| GFSLNQYGIS | VIYSDGRRTQYSDSVK | GRAAGTFDS | 1.12 0.82 0.60 0.84 0.76 0.25 | 0.73 |
| GFTLNEYGIS | VIYSDGRRTFYGDDVK | GRQAGTFIS | nd nd nd nd nd nd | nd |
| GFDLDEYGIS | VIYADGRRTFYSDSVK | GETAGTFDV | -0.40 -0.56 -0.51 -0.63 -0.31 -0.38 | -0.47 |
| GFDLNEYGIS | VIYADGMRTFYADSVK | GNVAGTFDS | -0.38 -0.23 -0.30 -0.52 -0.55 -0.48 | -0.41 |
| GFDLQEYGIS | VIYADGSRAAYVQNVK | GLTLDSYVV | nd nd nd nd nd nd | nd |
| GFDLNSYGIS | VIYSDGKRTFYADNVK | GRTAGTFDS | nd 0.63 1.48 1.45 0.70 0.30 | 0.91 |
| GFTLNDYGIS | VIYSDGRRTIYIDSVK | GRAAGTFDS | nd nd nd nd nd nd | nd |
| GFDLNEYGIS | VIYADGSRTVYADSVK | GNQAGTFDV | -0.18 -0.25 -0.23 -0.32 0.02 -0.15 | -0.18 |
| GFNLNEYGIS | VIYADGRRTAYADSVK | GEIAGTFDV | -1.55 -1.23 -1.05 -1.30 -1.45 -1.72 | -1.38 |
| GFALDEYGIS | VIYADGSRTVYAGDVK | GMLGAAFDM | nd nd nd nd nd nd | nd |
| KFSLNSYGIS | VIYSDGRRTFYSDSVK | GRTAGTFDS | nd nd nd 2.22 nd nd | 2.22 |
| GFCLNEYGIS | VIYSDGRRTFYGDSVK | GRTAGTFDL | nd 1.66 3.92 2.44 2.67 2.86 | 2.71 |
| GFSLDEYGIS | VIYADGRRTFYIDSVK | GETAGTFDS | -0.35 -0.44 -0.50 -0.32 -0.51 -0.53 | -0.44 |
| GFELNSYGIS | VIYADGRRTFYSDSVK | GKAAGTFDS | -0.20 -0.06 -0.47 -0.02 -0.21 -0.04 | -0.17 |
| GFTLDSYGIS | VIYSDGRRTFYGDSVK | GRQAGTFDV | nd 0.76 1.17 1.03 1.25 nd | 1.05 |
| GFDLNEYGIS | VIYADGMRTVYADSVK | GNNAGTFDV | 0.11 -0.11 0.39 0.17 -0.24 0.30 | 0.10 |
| GFDLNSYGIS | VIYSDGRRTFYIDSVK | GREAGTFDM | 0.21 -0.07 0.46 -0.93 -0.09 -0.60 | -0.17 |
| GFDLNEYGIS | VIYADGQRTAYADSVK | GQVAGTFDQ | 0.12 -0.62 -0.14 -0.93 -0.52 -0.87 | -0.49 |
| GFDLNEYGIS | VIYADGTRTAYTDSVK | GNAAGTFDL | 0.27 0.04 -0.08 0.30 0.31 -0.01 | 0.14 |
| GFGLNSYGIS | VIYSDGRRTFYIDQVK | GKTAGTFDS | nd nd nd nd nd 1.34 | 1.34 |
| GFSLNEYGIS | VIYSDGRRTFYGDNVK | GRTAGTFDS | -0.16 -0.28 0.04 -0.34 -0.23 -0.09 | -0.18 |
| GFQLNDYGIS | VIYSDGRRTFYTDSVK | GRAAGTFIS | nd nd nd nd nd nd | nd |
| GFNLDEYGIS | VIYADGLRTFYADSVK | GQVAGTFLM | 0.89 0.49 0.46 0.40 0.14 0.61 | 0.50 |
| GFDLNEYGIS | VIYADGMRTYYADSVK | GNNAGTFDI | 0.99 1.17 1.18 0.71 0.50 0.78 | 0.89 |
| GFTLNMYGIS | VIYSDGMRTFYGDSVK | GEAAKTFDT | nd nd nd nd nd nd | nd |
| GFDLNEYGIS | VIYADGMRTFYADSVK | GNNAGTFDV | -0.03 -0.25 -0.25 -0.42 -0.27 -0.05 | -0.21 |
| GFTLNSYGIS | VIYSDGRRTFYSDSVK | GREAGTFIS | nd nd nd nd nd nd | nd |

Values of this round are not directly comparable with the first-round values of the same sequences.
Nonspecific signal, from three strains lacking the peptide, appeared in 1% of pairings of all heavy chain designs, centred on 2.08 (5% of these signals below 0.84); values are not corrected for it.
Of ten entries with the parent sequence, four were seen in most replicates (averages 0.34 to 2.37), three in one and three in none, so single entries are noisy.